Test results as given in patent publication US20080214572A1, “Selected Tetracyclic Tetrahydrofuran Derivatives Containing a Cyclic Amine Side Chain” (priority 2005, published 2008).
Values belong to the molecule of their own block, whether it stands above or below them.

Protein sequences, listed by entry. Tags and fused reporters are not part of them. Lines headed by an entry give the natural chain unless they say otherwise; changes in a name come on top. Residues count along the entry.
UniProt P28335, 33-458 limits assumed: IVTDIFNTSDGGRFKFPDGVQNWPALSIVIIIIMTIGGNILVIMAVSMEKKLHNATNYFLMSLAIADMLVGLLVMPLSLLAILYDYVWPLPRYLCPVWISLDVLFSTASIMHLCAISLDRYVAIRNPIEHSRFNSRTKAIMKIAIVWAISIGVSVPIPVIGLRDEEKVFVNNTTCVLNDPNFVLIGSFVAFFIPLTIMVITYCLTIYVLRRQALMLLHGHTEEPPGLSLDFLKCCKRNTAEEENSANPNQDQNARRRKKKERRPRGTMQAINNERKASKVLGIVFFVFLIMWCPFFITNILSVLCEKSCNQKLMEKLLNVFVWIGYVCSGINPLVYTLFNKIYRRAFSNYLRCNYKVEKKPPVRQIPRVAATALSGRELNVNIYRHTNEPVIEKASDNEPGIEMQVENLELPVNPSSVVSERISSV
UniProt P28223, whole entry: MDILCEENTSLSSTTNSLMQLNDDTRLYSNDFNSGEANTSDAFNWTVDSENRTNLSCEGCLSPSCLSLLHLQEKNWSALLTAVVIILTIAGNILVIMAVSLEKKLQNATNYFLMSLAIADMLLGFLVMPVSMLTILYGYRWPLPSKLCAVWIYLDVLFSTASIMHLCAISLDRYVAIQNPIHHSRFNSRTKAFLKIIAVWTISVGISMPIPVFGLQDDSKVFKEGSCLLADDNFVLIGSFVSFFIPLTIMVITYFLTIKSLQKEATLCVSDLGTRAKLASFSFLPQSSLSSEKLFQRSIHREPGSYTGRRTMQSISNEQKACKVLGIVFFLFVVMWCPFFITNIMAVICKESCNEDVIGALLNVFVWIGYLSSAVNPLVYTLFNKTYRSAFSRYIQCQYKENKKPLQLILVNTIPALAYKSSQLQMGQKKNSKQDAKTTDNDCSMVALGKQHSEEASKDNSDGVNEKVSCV
UniProt P14416, whole entry: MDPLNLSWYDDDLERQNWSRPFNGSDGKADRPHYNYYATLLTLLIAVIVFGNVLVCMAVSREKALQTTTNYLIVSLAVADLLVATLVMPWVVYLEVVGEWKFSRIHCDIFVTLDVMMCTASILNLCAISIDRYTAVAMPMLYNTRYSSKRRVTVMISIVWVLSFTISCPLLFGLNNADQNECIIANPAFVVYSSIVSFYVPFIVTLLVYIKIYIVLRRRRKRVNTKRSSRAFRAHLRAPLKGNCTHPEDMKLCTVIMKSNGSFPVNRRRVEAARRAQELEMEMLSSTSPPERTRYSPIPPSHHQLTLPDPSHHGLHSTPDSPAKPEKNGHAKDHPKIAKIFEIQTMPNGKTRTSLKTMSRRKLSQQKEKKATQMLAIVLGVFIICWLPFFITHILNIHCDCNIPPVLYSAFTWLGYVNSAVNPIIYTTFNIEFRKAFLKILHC

What was measured:
[1] = target: human cloned 5-HT2C receptor, expressed in CHO cells (Homo sapiens, UniProt P28335); test: In vitro radioligand binding affinity for 5-HT2C receptor ([3H]mesulergine)
Procedure: (§1) The interaction of the compounds of Formula (I) with 5-HT2A and 5-HT2C receptors was assessed in in vitro radioligand binding experiments. In general, a low concentration of a radioligand with a high binding affinity for the receptor is incubated with a sample of a tissue preparation enriched in a particular receptor (1 to 5 mg tissue) in a buffered medium (0.2 to 5 ml). During the incubation, the radioligands bind to the receptor. When equilibrium of binding is reached, the receptor bound radioactivity is separated from the non-bound radioactivity, and the receptor bound activity is counted. The interaction of the test compounds with the receptors is assessed in competition binding experiments. Various concentrations of the test compound are added to the incubation mixture containing the tissue preparation and the radioligand. Binding of the radioligand will be inhibited by the test compound in proportion to its binding affinity and its concentration. The affinities of the compounds for the 5-HT2 receptors were measured by means of radioligand binding studies conducted with: (a) human cloned 5-HT2A receptor, expressed in L929 cells using [^125I]R91150 as radioligand and (b) human cloned 5-HT2C receptor, expressed in CHO cells using [^3H]mesulergine as radioligand.
(§2) The results are given in Table 3 below in terms of pIC50 values for the respective compounds.

[2] = target: human cloned 5-HT2A receptor, expressed in L929 cells (Homo sapiens, UniProt P28223); test: In vitro radioligand binding affinity for 5-HT2A receptor ([125I]R91150)
Procedure: as §1, §2

[3] = target: human Dopamine D2L receptor (Homo sapiens, UniProt P14416); test: In vitro binding affinity for human D2L receptor ([3H]Spiperone); settings: human D2L-transfected CHO cell membranes
Procedure: Frozen membranes of human Dopamine D2L receptor-transfected CHO cells were thawed, briefly homogenized using an Ultra-Turrax T25 homogenizer and diluted in Tris-HCl assay buffer containing NaCl, CaCl2, MgCl2, KCl ([…] respectively, adjusted to pH 7.7 with HCl) to an appropriate protein concentration optimized for specific and non-specific binding. Radioligand [^3H]Spiperone (NEN, specific activity ˜70 Ci/mmol) was diluted in assay buffer at a concentration of 2 nmol/L. Prepared radioligand (50 μl), along with 50 μl of either the 10% DMSO control, Butaclamol (10^−6 mol/l final concentration), or compound of interest, was then incubated (30 min, 37° C.) with 400 μl of the prepared membrane solution. Membrane-bound activity was filtered through a Packard Filtermate harvester onto GF/B Unifilter plates and washed with ice-cold Tris-HCl buffer (50 mM; pH 7.7; 6×0.5 ml). Filters were allowed to dry before adding scintillation fluid and counting in a Topcount scintillation counter. Percentage specific bound and competition binding curves were calculated using S-Plus software (Insightful).
as §2
The values in the Table are pIC50 values and were determined in accordance with the procedure given above for determining D2 affinity.

[4] = tested form: oxalate (C2H2O4), racemate
[5] = tested form: ethanedioate (oxalate) 1:1, racemate, re
[6] = tested form: dioxalate (.2 C2H2O4)

Compound: OCCN1CCN(CC2CC3c4ccccc4Oc4ccc(Br)cc4C3O2)CC1 (stereo not drawn)
- 5-HT2C pIC50 [1, 4]: 6.40
- 5-HT2A pIC50 [2, 4]: 7.36
- D2L pIC50 [3, 4]: 7.74

Compound: OCCN1CCN(C[C@@H]2C[C@@H]3c4ccccc4Sc4ccc(F)cc4[C@H]3O2)CC1 (relative stereo)
- 5-HT2C pIC50 ([1]; tested form: oxalate (1:2)): 7.56
- 5-HT2A pIC50 ([2]; tested form: oxalate (1:2)): 8.67
- D2L pIC50 ([3]; tested form: oxalate (1:2)): 8.11

Compound: Clc1ccc2c(c1)C1OC(CN3CCCC3)CC1c1ccccc1O2 (stereo not drawn)
- 5-HT2C pIC50 [1, 5]: 7.63
- 5-HT2A pIC50 [2, 5]: 7.55
- D2L pIC50 [3, 5]: 7.34

Compound: Fc1ccc2c(c1)[C@H]1O[C@@H](CN3CCNCC3)C[C@@H]1c1ccccc1C2
- 5-HT2C pIC50 [1, 6]: 7.45
- 5-HT2A pIC50 [2, 6]: 7.57
- D2L pIC50 [3, 6]: 6.97

The remaining lines, values ahead:

- 5-HT2C pIC50 ([1]; tested form: oxalate (1:2)): 7.43
- 5-HT2A pIC50 ([2]; tested form: oxalate (1:2)): 8.01
- D2L pIC50 ([3]; tested form: oxalate (1:2)): 7.86
Compound: CC(C)(O)CN1CCN(C[C@H]2C[C@@H]3c4ccccc4Cc4ccc(F)cc4[C@H]3O2)CC1

- 5-HT2C pIC50 ([1]; tested form: TFA salt): 7.52
- 5-HT2A pIC50 ([2]; tested form: TFA salt): 7.97
- D2L pIC50 ([3]; tested form: TFA salt): 8.56
Compound: Oc1ccc(CN2CCN(C[C@H]3C[C@@H]4c5ccccc5Cc5ccc(F)cc5[C@H]4O3)CC2)cc1
